Test results: ChEMBL document CHEMBL4431318, “Design, synthesis and biological evaluation of novel 5-fluoro-1H-benzimidazole-4-carboxamide derivatives as potent PARP-1 inhibitors” (Bioorg Med Chem Lett, 2016)

By UniProt entry, the sequences of proteins in these tests, tags left out.
UniProt P09874, whole entry: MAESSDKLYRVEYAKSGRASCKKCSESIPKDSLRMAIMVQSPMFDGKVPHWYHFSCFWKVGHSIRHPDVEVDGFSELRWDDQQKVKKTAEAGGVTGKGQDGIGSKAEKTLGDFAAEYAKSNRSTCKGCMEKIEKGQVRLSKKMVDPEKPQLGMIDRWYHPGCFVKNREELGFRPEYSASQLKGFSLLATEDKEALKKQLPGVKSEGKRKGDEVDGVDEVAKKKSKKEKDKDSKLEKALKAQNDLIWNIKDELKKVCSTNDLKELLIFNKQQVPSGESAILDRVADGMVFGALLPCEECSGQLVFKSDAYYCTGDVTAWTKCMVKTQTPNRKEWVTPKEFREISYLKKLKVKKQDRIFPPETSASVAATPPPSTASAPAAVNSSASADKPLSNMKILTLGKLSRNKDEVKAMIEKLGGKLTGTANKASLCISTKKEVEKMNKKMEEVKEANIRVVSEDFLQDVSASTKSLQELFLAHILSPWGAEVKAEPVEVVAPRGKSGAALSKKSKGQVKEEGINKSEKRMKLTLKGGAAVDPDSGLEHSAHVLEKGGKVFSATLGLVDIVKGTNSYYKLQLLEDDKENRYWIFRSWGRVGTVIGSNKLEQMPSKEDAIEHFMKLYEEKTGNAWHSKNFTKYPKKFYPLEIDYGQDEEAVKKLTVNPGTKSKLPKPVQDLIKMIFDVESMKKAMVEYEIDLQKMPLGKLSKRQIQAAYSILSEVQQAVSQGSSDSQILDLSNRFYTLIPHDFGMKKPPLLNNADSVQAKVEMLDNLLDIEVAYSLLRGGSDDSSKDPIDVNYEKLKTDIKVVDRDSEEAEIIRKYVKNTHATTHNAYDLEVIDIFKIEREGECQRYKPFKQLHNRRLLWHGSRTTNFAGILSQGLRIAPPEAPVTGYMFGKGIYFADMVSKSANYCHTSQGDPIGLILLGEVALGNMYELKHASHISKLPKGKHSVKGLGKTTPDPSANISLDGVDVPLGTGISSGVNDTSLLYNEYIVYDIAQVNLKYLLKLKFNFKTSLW

Target: Poly [ADP-ribose] polymerase 1 (Homo sapiens, UniProt P09874)
Conditions: A549

PF50	Compound
1	CN1CCC[C@@]1(C)c1nc2c(C(N)=O)c(F)ccc2[nH]1
0.9	C[C@]1(c2nc3c(C(N)=O)c(F)ccc3[nH]2)CCCN1
0.8	NC(=O)c1c(F)ccc2[nH]c(C3CCNCC3)nc12
1.9	CCCN1CCC(c2nc3c(C(N)=O)c(F)ccc3[nH]2)CC1
1.6	NC(=O)c1c(F)ccc2[nH]c(-c3ccc(N4CCNCC4)cc3)nc12
2.3	NC(=O)c1c(F)ccc2[nH]c(-c3ccc(N4CCOCC4)cc3)nc12
